## Permeability data for macrocyclic peptides

Collected by the curators of CycPeptMPDB (Li et al. 2023) from Kelly et al. 2021, doi:10.1021/jacs.0c06115.

PAMPA is the parallel artificial membrane permeability assay, which has no cells and reads passive diffusion. P is given in units of 10^-6 cm/s (from log10 values with two decimals); larger means faster passage.

CC(=O)N1CCC[C@@H]1C(=O)N(C)[C@@H](CC(C)C)C(=O)N[C@@H]1C(=O)N(C)[C@@H](CC(C)C)C(=O)N[C@@H](CC(C)C)C(=O)N[C@H](CC(C)C)C(=O)N(C)[C@H](C)C(=O)N[C@H](CC(C)C)C(=O)N2CCC[C@H]2C(=O)O[C@@H]1C has PAMPA 0.13 × 10^-6 cm/s. CC(=O)N1CCC[C@H]1C(=O)N(C)[C@H](CC(C)C)C(=O)N[C@@H]1C(=O)N[C@H](CC(C)C)C(=O)N(C)[C@H](CC(C)C)C(=O)N[C@H](CC(C)C)C(=O)N[C@@H](C)C(=O)N[C@@H](CC(C)C)C(=O)N2CCC[C@@H]2C(=O)O[C@@H]1C has PAMPA 5 × 10^-6 cm/s. CC(=O)N[C@@H]1C(=O)N2CCC[C@H]2C(=O)N(C)[C@H](CC(C)C)C(=O)N[C@H](CC(C)C)C(=O)N[C@@H](CC(C)C)C(=O)N[C@@H](CC(C)C)C(=O)N[C@H](C)C(=O)N[C@@H](CC(C)C)C(=O)N2CCC[C@@H]2C(=O)O[C@@H]1C has PAMPA 0.054 × 10^-6 cm/s. Listed for CC(=O)N1CCC[C@@H]1C(=O)N(C)[C@@H](CC(C)C)C(=O)N[C@@H]1C(=O)N[C@@H](CC(C)C)C(=O)N[C@@H](CC(C)C)C(=O)N(C)[C@@H](CC(C)C)C(=O)N[C@@H](C)C(=O)N[C@H](CC(C)C)C(=O)N2CCC[C@H]2C(=O)O[C@@H]1C: PAMPA 0.51 × 10^-6 cm/s.

Listed for CC(=O)N1CCC[C@H]1C(=O)N(C)[C@@H](CC(C)C)C(=O)N[C@@H]1C(=O)N[C@H](CC(C)C)C(=O)N[C@@H](CC(C)C)C(=O)N(C)[C@H](CC(C)C)C(=O)N[C@@H](C)C(=O)N[C@@H](CC(C)C)C(=O)N2CCC[C@@H]2C(=O)O[C@@H]1C: PAMPA 6.2 × 10^-6 cm/s. CC(=O)N1CCC[C@@H]1C(=O)N(C)[C@H](CC(C)C)C(=O)N[C@@H]1C(=O)N(C)[C@H](CC(C)C)C(=O)N[C@H](CC(C)C)C(=O)N(C)[C@@H](CC(C)C)C(=O)N(C)[C@H](C)C(=O)N[C@@H](CC(C)C)C(=O)N2CCC[C@H]2C(=O)O[C@@H]1C is reported with PAMPA 3.1 × 10^-6 cm/s. CC(=O)N1CCC[C@H]1C(=O)N(C)[C@H](CC(C)C)C(=O)N[C@@H]1C(=O)N(C)[C@H](CC(C)C)C(=O)N[C@@H](CC(C)C)C(=O)N[C@H](CC(C)C)C(=O)N(C)[C@H](C)C(=O)N[C@@H](CC(C)C)C(=O)N2CCC[C@H]2C(=O)O[C@@H]1C is reported with PAMPA 7.9 × 10^-6 cm/s. The entry for CC(=O)N1CCC[C@@H]1C(=O)N(C)[C@@H](CC(C)C)C(=O)N[C@@H]1C(=O)N[C@H](CC(C)C)C(=O)N[C@H](CC(C)C)C(=O)N[C@H](CC(C)C)C(=O)N(C)[C@H](C)C(=O)N[C@H](CC(C)C)C(=O)N2CCC[C@@H]2C(=O)O[C@@H]1C lists PAMPA 0.89 × 10^-6 cm/s.

The entry for CC(=O)N1CCC[C@@H]1C(=O)N(C)[C@@H](CC(C)C)C(=O)N[C@@H]1C(=O)N[C@@H](CC(C)C)C(=O)N[C@@H](CC(C)C)C(=O)N(C)[C@H](CC(C)C)C(=O)N(C)[C@H](C)C(=O)N[C@@H](CC(C)C)C(=O)N2CCC[C@H]2C(=O)O[C@@H]1C lists PAMPA 2.1 × 10^-6 cm/s. For CC(=O)N1CCC[C@H]1C(=O)N(C)[C@H](CC(C)C)C(=O)N[C@@H]1C(=O)N(C)[C@H](CC(C)C)C(=O)N(C)[C@H](CC(C)C)C(=O)N(C)[C@H](CC(C)C)C(=O)N[C@@H](C)C(=O)N[C@H](CC(C)C)C(=O)N2CCC[C@H]2C(=O)O[C@@H]1C the data give PAMPA 0.001 × 10^-6 cm/s. The entry for CC(=O)N1CCC[C@@H]1C(=O)N(C)[C@@H](CC(C)C)C(=O)N[C@@H]1C(=O)N[C@H](CC(C)C)C(=O)N(C)[C@@H](CC(C)C)C(=O)N(C)[C@@H](CC(C)C)C(=O)N(C)[C@@H](C)C(=O)N[C@H](CC(C)C)C(=O)N2CCC[C@H]2C(=O)O[C@@H]1C lists PAMPA 4 × 10^-6 cm/s. CC(=O)N1CCC[C@H]1C(=O)N(C)[C@@H](CC(C)C)C(=O)N[C@@H]1C(=O)N(C)[C@@H](CC(C)C)C(=O)N[C@@H](CC(C)C)C(=O)N(C)[C@H](CC(C)C)C(=O)N(C)[C@@H](C)C(=O)N[C@@H](CC(C)C)C(=O)N2CCC[C@H]2C(=O)O[C@@H]1C has PAMPA 5.4 × 10^-6 cm/s.

Listed for CC(=O)N1CCC[C@@H]1C(=O)N(C)[C@@H](CC(C)C)C(=O)N[C@@H]1C(=O)N(C)[C@@H](CC(C)C)C(=O)N[C@@H](CC(C)C)C(=O)N[C@@H](CC(C)C)C(=O)N(C)[C@@H](C)C(=O)N[C@@H](CC(C)C)C(=O)N2CCC[C@H]2C(=O)O[C@@H]1C: PAMPA 0.18 × 10^-6 cm/s. CC(=O)N1CCC[C@@H]1C(=O)N(C)[C@@H](CC(C)C)C(=O)N[C@@H]1C(=O)N[C@@H](CC(C)C)C(=O)N(C)[C@@H](CC(C)C)C(=O)N(C)[C@H](CC(C)C)C(=O)N[C@@H](C)C(=O)N[C@H](CC(C)C)C(=O)N2CCC[C@H]2C(=O)O[C@@H]1C is reported with PAMPA 0.25 × 10^-6 cm/s. The entry for CC(=O)N1CCC[C@H]1C(=O)N(C)[C@H](CC(C)C)C(=O)N[C@@H]1C(=O)N(C)[C@@H](CC(C)C)C(=O)N(C)[C@@H](CC(C)C)C(=O)N(C)[C@H](CC(C)C)C(=O)N(C)[C@H](C)C(=O)N[C@H](CC(C)C)C(=O)N2CCC[C@@H]2C(=O)O[C@@H]1C lists PAMPA 4.3 × 10^-6 cm/s. CC(=O)N1CCC[C@H]1C(=O)N[C@@H]1C(=O)N[C@H](CC(C)C)C(=O)N(C)[C@@H](CC(C)C)C(=O)N(C)[C@@H](CC(C)C)C(=O)N[C@@H](CC(C)C)C(=O)N(C)[C@H](C)C(=O)N[C@@H](CC(C)C)C(=O)N2CCC[C@@H]2C(=O)O[C@@H]1C is reported with PAMPA 2.7 × 10^-6 cm/s.

CC(=O)N1CCC[C@H]1C(=O)N[C@@H]1C(=O)N[C@H](CC(C)C)C(=O)N(C)[C@H](CC(C)C)C(=O)N(C)[C@@H](CC(C)C)C(=O)N(C)[C@@H](CC(C)C)C(=O)N(C)[C@@H](C)C(=O)N[C@@H](CC(C)C)C(=O)N2CCC[C@@H]2C(=O)O[C@@H]1C is reported with PAMPA 8.5 × 10^-6 cm/s. CC(=O)N1CCC[C@H]1C(=O)N(C)[C@H](CC(C)C)C(=O)N[C@@H]1C(=O)N[C@@H](CC(C)C)C(=O)N(C)[C@@H](CC(C)C)C(=O)N[C@@H](CC(C)C)C(=O)N(C)[C@@H](C)C(=O)N[C@@H](CC(C)C)C(=O)N2CCC[C@@H]2C(=O)O[C@@H]1C has PAMPA 3 × 10^-6 cm/s. Listed for CC(=O)N1CCC[C@@H]1C(=O)N(C)[C@H](CC(C)C)C(=O)N[C@@H]1C(=O)N[C@@H](CC(C)C)C(=O)N[C@@H](CC(C)C)C(=O)N[C@H](CC(C)C)C(=O)N[C@@H](C)C(=O)N[C@@H](CC(C)C)C(=O)N2CCC[C@@H]2C(=O)O[C@@H]1C: PAMPA 0.04 × 10^-6 cm/s. The entry for CC(=O)N1CCC[C@@H]1C(=O)N(C)[C@@H](CC(C)C)C(=O)N[C@@H]1C(=O)N(C)[C@H](CC(C)C)C(=O)N[C@H](CC(C)C)C(=O)N(C)[C@H](CC(C)C)C(=O)N[C@@H](C)C(=O)N[C@@H](CC(C)C)C(=O)N2CCC[C@@H]2C(=O)O[C@@H]1C lists PAMPA 0.45 × 10^-6 cm/s.

For CC(=O)N1CCC[C@@H]1C(=O)N(C)[C@@H](CC(C)C)C(=O)N[C@@H]1C(=O)N[C@H](CC(C)C)C(=O)N(C)[C@@H](CC(C)C)C(=O)N(C)[C@H](CC(C)C)C(=O)N[C@@H](C)C(=O)N[C@H](CC(C)C)C(=O)N2CCC[C@H]2C(=O)O[C@@H]1C the data give PAMPA 4 × 10^-6 cm/s. For CC(=O)N1CCC[C@H]1C(=O)N[C@@H]1C(=O)N[C@H](CC(C)C)C(=O)N[C@@H](CC(C)C)C(=O)N[C@@H](CC(C)C)C(=O)N(C)[C@@H](CC(C)C)C(=O)N[C@@H](C)C(=O)N[C@@H](CC(C)C)C(=O)N2CCC[C@@H]2C(=O)O[C@@H]1C the data give PAMPA 1.5 × 10^-6 cm/s.

The last 3 entries again:

CC(=O)N1CCC[C@@H]1C(=O)N(C)[C@@H](CC(C)C)C(=O)N[C@@H]1C(=O)N(C)[C@H](CC(C)C)C(=O)N[C@H](CC(C)C)C(=O)N(C)[C@H](CC(C)C)C(=O)N[C@@H](C)C(=O)N[C@@H](CC(C)C)C(=O)N2CCC[C@@H]2C(=O)O[C@@H]1C is reported with PAMPA 0.45 × 10^-6 cm/s.
CC(=O)N1CCC[C@@H]1C(=O)N(C)[C@@H](CC(C)C)C(=O)N[C@@H]1C(=O)N[C@H](CC(C)C)C(=O)N(C)[C@@H](CC(C)C)C(=O)N(C)[C@H](CC(C)C)C(=O)N[C@@H](C)C(=O)N[C@H](CC(C)C)C(=O)N2CCC[C@H]2C(=O)O[C@@H]1C is reported with PAMPA 4 × 10^-6 cm/s.
CC(=O)N1CCC[C@H]1C(=O)N[C@@H]1C(=O)N[C@H](CC(C)C)C(=O)N[C@@H](CC(C)C)C(=O)N[C@@H](CC(C)C)C(=O)N(C)[C@@H](CC(C)C)C(=O)N[C@@H](C)C(=O)N[C@@H](CC(C)C)C(=O)N2CCC[C@@H]2C(=O)O[C@@H]1C is reported with PAMPA 1.5 × 10^-6 cm/s.

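Lipid, pH, incubation time, direction and concentration are not recorded in the data file. The list need not hold all peptides of the study. Peptides that the database sets to -10, its floor, are left out.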